These results are taken from US10676430B2, “Non-alpha substituted peroxy acids and uses thereof” (Stepan Company, priority 2016, dated 2020).

This data set can be described thus: Peracid stability by standard titration method. The conditions noted are these: for Peracid loss/day: 1.00% H2SO4, between day 6 and day 13; for Peracid at day 6 / Peracid at day 13: reaction mixture 20.00% organic acid, 7.50% H2O2, 1.00% H2SO4, DI water. Type of data set: physicochemical. From the text: […] The H2O2 used is commercially available from Arkema under the tradename Perxoal 50EG and includes a small amount of stabilizer. The reaction proceeded until equilibrium was reached, in accordance with the reaction scheme recited above. The starting carboxylic acids were acetic acid, 3-hydroxy propanoic acid, 3-chloro-propanoic acid, 2-hydroxy-acetic acid (glycolic acid), 2-hydroxy-propanoic acid (lactic acid) and 2-oxo-propanoic acid. The 3-hydroxy propanoic acid and 3-chloro-propanoic acid generated non alpha-substituted peracids that are examples of the present technology. The other starting carboxylic acids generated peracids that are not within Formula 1 or Formula 2 and are comparative peracid examples.
Each of the resulting peracids were evaluated for odor. In addition, the resulting peracids were evaluated for stability using a standard titration method known to those skilled in the art.

For `CC(O)C(=O)OO` (stereo not drawn) [2-HPPA, perlactic acid], the Peracid loss/day was determined as 1.381%, the “Peracid at day 6” value turned out to be 1.690% and the “Peracid at day 13” value is reported as 1.530%.
The like results for `CC(=O)C(=O)OO` [2-OPPA] were, in that order, 12.644%, 0.290% and 0.030%.
